Assay results reported in paper PMC6679956 (Journal of medicinal chemistry, 2019).

Sequences of proteins named here, by UniProt entry; tags and fusion partners are left off.
UniProt P06730, whole entry: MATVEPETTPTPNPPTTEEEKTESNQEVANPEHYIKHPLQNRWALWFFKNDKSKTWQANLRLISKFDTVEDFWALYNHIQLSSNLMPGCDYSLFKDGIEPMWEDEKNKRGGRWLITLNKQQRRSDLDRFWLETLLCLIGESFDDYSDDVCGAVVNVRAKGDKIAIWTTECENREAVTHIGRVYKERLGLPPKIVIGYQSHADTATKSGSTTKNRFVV

Legend:
m^7GDP-bound eIF4E = m^7GDP-bound eIF4E (Homo sapiens, UniProt P06730); test: SPR binding kinetics of peptides to immobilized eIF4E
[1] = target: 10× His-eIF4E (human eukaryotic translation initiation factor 4E) (human, UniProt P06730 1-217); test: SPR

## CC(=O)N[C@@H](CCCCN)C(=O)N[C@@H](CCCCN)C(=O)N[C@@H](CCCNC(=N)N)C(=O)N[C@@H](Cc1ccc(O)cc1)C(=O)N[C@@H](CO)C(=O)N[C@@H](CCCNC(=N)N)C(=O)N[C@@]1(C)CCCC=CCCC[C@@](C)(C(=O)N[C@@H](CC(C)C)C(N)=O)NC(=O)[C@H](CC(C)C)NC(=O)[C@H](CC(C)C)NC(=O)[C@H](CCC(N)=O)NC1=O [sTIP-04, reference compound]
m^7GDP-bound eIF4E; SPR, 25 °C
  fold enhancement in kd of stapled versus linear peptide: > 20 fold
  fold reduction in ka of stapled versus linear peptide: 2.4 fold
m^7GDP-bound eIF4E; pH 7.5, read-out: association rate ka
  kon: 830000 ± 50000 M⁻¹ s⁻¹
m^7GDP-bound eIF4E; pH 7.5, read-out: dissociation rate kd
  koff: 0.0052 ± 0.0001 s⁻¹

## KKRYDREFLLGFQF (N-terminal acetyl cap; C-terminal amide) [linear eIF4G peptide (KKRYDREFLLGFQF, eIF4GI)]
[1]
  Kd: 0.029 ± 0.006 µM
